Measured values: PubChem BioAssay (NCI)
Values joined by “and” are separate entries in the source; they are usually repeats but may differ in a detail not shown here. Equal values may be shown once. The entries are a selection whose mix differs from that of the whole data set. Active and inactive are the calls of the source. Rule as the data show it: active = growth inhibition above about 70%; inactive = the rest.

How the values were obtained:
[1] = NCI Yeast Anticancer Drug Screen. Data for the rad50 strain (AID 155);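 also: 0% = growth of vehicle-only cultures of the same strain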; conditions: S. cerevisiae rad50 strain growth inhibition; at 50.0 µM; active compounds read high
[2] = NCI Yeast Anticancer Drug Screen. Data for the mec2-1 strain (AID 157); conditions: S. cerevisiae mec2-1 strain, at 50.0 µM, active compounds read high
[3] = NCI Yeast Anticancer Drug Screen. Data for the sgs1 mgt1 strain (AID 161);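 also: 0% = growth of cultures given vehicle only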; conditions: S. cerevisiae sgs1 mgt1 strain, at 50.0 µM, active compounds read high
[4] = NCI Yeast Anticancer Drug Screen. Data for the cln2 rad14 strain (AID 165);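 also: 0% = growth equal to vehicle treated cultures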; conditions: S. cerevisiae cln2 rad14 strain, at 50.0 µM, active compounds read high
[5] = NCI Yeast Anticancer Drug Screen. Data for the bub3 strain (AID 167); conditions: S. cerevisiae bub3 mutant strain, at 50.0 µM, active compounds read high
[6] = NCI Yeast Anticancer Drug Screen. Data for the mlh1 rad18 strain (AID 175); conditions: S. cerevisiae mlh1 rad18 strain growth inhibition; at 50.0 µM; active compounds read high

Measured: growth inhibition

ClCCN(CCCl)C1Cc2ccccc2C1
inactive: [1] 11.1% | [2] 10.9% | [3] -17.2% | [4] -0.55% | [5] -20.2% | [6] 5.1%

CCC1C(OC(=O)CC(O)(c2ccccc2)c2ccccc2)C2CCN1CC2 (centres undefined)
inactive: [1] 17.1% | [2] 5.35% | [3] 3.5% | [4] -3.7% | [5] 4.05% | [6] 16.9%

C1CCNCC1.O=C(O)C(O)c1ccc(N(CCCl)CCCl)cc1 (centres undefined)
inactive: [1] 8.9% | [2] -7.35% | [3] -2.55% | [4] 15.1% | [5] -21.6% | [6] 13%

O=C(OC1CN2CCC1CC2)C1(c2ccccc2)COc2ccccc21 (centres undefined)
inactive: [1] 11.1% | [2] -8.6% | [3] 18.8% | [4] 12.8% | [5] 14.4% | [6] -29.2%

C[N+](CCCl)(CCCl)Cc1ccc([N+](=O)[O-])cc1
inactive: [1] 14.7% | [2] -22.1% | [3] -2.1% | [4] 6.35% | [5] -2.95% | [6] 15.8%

CC1(C)OCC(COP(N)(=O)N(CCCl)CCCl)O1 (centres undefined)
active: [1] 95.7% | [2] 87.7% | [3] 94.5% | [4] 83.2% | [5] 85.7% | [6] 90.6%

N#CC(C#N)=Cc1ccc2c(c1)OCO2
inactive: [1] 26.2% and -6.35% | [2] 4.9% and 15.3% | [3] 12.6% and 27.1% | [4] 12.2% and -34.6% | [5] -0.65% and -2.15% | [6] 12.7% and -4.75%

Cc1cc(C)c2nc(CN(CCCl)CCCl)[nH]c2c1
inactive: [1] -0.05% | [2] 4.55% | [3] 13.4% | [4] 26.6% | [5] 15.3% | [6] 2.4%

O=C(O)C1(Nc2ccccc2)CCN(Cc2ccccc2)CC1
inactive: [1] 16.4% | [2] -19.6% | [3] -25.4% | [4] -5.65% | [5] -36.2% | [6] 0.7%

NC(=O)C1(Nc2ccccc2)CCNCC1
inactive: [1] -9.25% | [2] -15.1% | [3] -5.8% | [4] 7.95% | [5] -0.55% | [6] -6.15%

C[N+](CCCl)(CCCl)Cc1ccc(S(C)(=O)=O)cc1
inactive: [1] -12.1% | [2] -17.2% | [3] -10.2% | [4] 6.45% | [5] -0.2% | [6] 3.8%

Cc1ccc(N(CCBr)CCBr)cc1
inactive: [1] -0.55% | [2] -9.2% | [3] 6.7% | [4] 11.1% | [5] -1.8% | [6] 13.8%

CC1CC(C)OP(=O)(N(CCCl)CCCl)N1 (centres undefined)
inactive: [1] -9.7% | [2] -11.4% | [3] -24.9% | [4] -34.9% | [5] -19.7% | [6] -18%

Nc1c(Cl)cc(CN(CCCl)CCCl)cc1Cl
inactive: [1] 3.8% | [2] -14.6% | [3] -0.9% | [4] -2.3% | [5] -7.7% | [6] 13.5%

ClCCN(CCCl)c1ccc(CN2CCCCC2)cc1
inactive: [1] 51.5% | [2] 0.65% | [3] 67.6% | [4] 59.5% | [5] 51.5% | [6] 63.7%

O=C(CN(CCCl)CCCl)Nc1cccc(F)c1
inactive: [1] 11.7% | [2] 6.45% | [3] 0.55% | [4] 9.85% | [5] 16.8% | [6] 2.2%

C1CCC(NC2CCCCC2)CC1.O=C(O)C(O)c1ccc(N(CCCl)CCCl)cc1 (centres undefined)
inactive: [1] 1.4% | [2] 6.15% | [3] 19.8% | [4] 2.95% | [5] 5.6% | [6] 37.9%

COc1ccc([N+](=O)[O-])cc1CN(CCBr)CCBr
inactive: [1] 6.85% | [2] 4.1% | [3] 7.2% | [4] -36% | [5] 1.2% | [6] 22.4%

S=C=Nc1ccc(N(CCCl)CCCl)cc1
inactive: [1] -0.05% | [2] -2.1% | [3] -4.7% | [4] 30.5% | [5] 4.4% | [6] 6.5%

N#Cc1ccc(C(=O)CBr)cc1
inactive: [1] 18.2% | [2] 31.4% | [3] -3.35% | [4] 2.15% | [5] -3.15% | [6] 16.8%

O=C1CCNCC1
inactive: [1] -6.6% | [2] -8% | [3] -10.1% | [4] 20.6% | [5] 4.15% | [6] 1.6%

Nc1cc([As](I)I)ccc1O
inactive: [1] 44.6% | [2] 43.9% | [3] 21.8% | [4] 26.8% | [5] 66.1% | [6] 61%

COc1cc(CN(CCCl)CCBr)cc(OC)c1OC
inactive: [1] -15.8% | [2] -5.35% | [3] -27.8% | [4] -63.5% | [5] 10.4% | [6] -25.2%

COc1ccccc1N(CCCl)CCCl
inactive: [1] 10.8% | [2] -6.4% | [3] -2.75% | [4] -9.05% | [5] 1.9% | [6] 0%

Cc1oc2ccccc2c(=O)c1CN(CCCl)CCCl
inactive: [1] -10.2% | [2] -23% | [3] 0.05% | [4] -4.15% | [5] -11.8% | [6] -19.9%

Cc1ccccc1NC1CC(C)(C)NC(C)(C)C1
inactive: [1] -4.75% | [2] -11.8% | [3] 6.05% | [4] -0.65% | [5] -6.7% | [6] -9.05%

[C-]#N.c1ccc([Te+](c2ccccc2)c2ccccc2)cc1
inactive: [1] 7.75% | [2] 7.35% | [3] -4.85% | [4] 10% | [5] -2.4% | [6] -25.4%

Cc1cc(N(CCCl)CCCl)ccc1C=C(C#N)C#N
inactive: [1] -24.9% | [2] -12.9% | [3] -13.2% | [4] -50% | [5] 18.1% | [6] -6.25%

CC(=O)N(c1ccccc1)C1CCNCC1
inactive: [1] -9.55% | [2] -17.4% | [3] 7.4% | [4] 8.05% | [5] -7.6% | [6] -11.4%

CC(C)NP(=O)(F)NC(C)C
inactive: [1] -6.9% | [2] 0.8% | [3] -15.7% | [4] 39% | [5] -14% | [6] -5.85%

Cc1ccc(N(CCCl)CCCl)cc1
inactive: [1] -0.15% | [2] -10.2% | [3] -13.7% | [4] -15.9% | [5] -10.6% | [6] -37.5%

O=C1NC(=NC2CCCCC2)C2(CCN(CCc3ccccc3)CC2)N1c1ccccc1
inactive: [1] 9.4% | [2] -4.5% | [3] 18.1% | [4] 11.4% | [5] 14.4% | [6] -16.9%

N#CC1(Nc2ccccc2)CCN(Cc2ccccc2)CC1
inactive: [1] -10.5% | [2] -1.65% | [3] 1.35% | [4] 9.45% | [5] -3.35% | [6] 3.5%

O=NN(CCSCCCl)C(=O)NC1CCCCC1
inactive: [1] 12.2% | [2] -10.8% | [3] 36.2% | [4] -32.2% | [5] -0.2% | [6] 9.35%

C[N+](CCCl)(CCCl)Cc1cccc([N+](=O)[O-])c1
inactive: [1] -46% | [2] -56.5% | [3] -32% | [4] -3.75% | [5] -18.2% | [6] -18.8%

O=[N+]([O-])c1ccc(C[N+]([O-])(CCCl)CCCl)cc1
inactive: [1] 21.2% | [2] 24.6% | [3] 57.5% | [4] 43.6% | [5] 44.5% | [6] 34.6%

O=C(Cl)c1ccc(N(CCCl)CCCl)cc1
inactive: [1] -3.05% | [2] 7.4% | [3] 5.7% | [4] -31.6% | [5] 6.05% | [6] 22.1%

ClCCN(CCCl)c1cccc(CN2CCOCC2)c1
inactive: [1] 59.7% | [2] 57.9% | [4] 68.3% | [5] 55%
active: [3] 79.7% | [6] 71.2%

Oc1cc(O)cc(N(CCCl)CCCl)c1
inactive: [1] 22.6% | [2] 17.3% | [3] 29.6% | [4] 12.3% | [5] 6.8% | [6] 46.5%

CC(C)OP(OC(C)C)OC(C)C
inactive: [1] 25.8% | [2] 15.9% | [3] 2.95% | [4] 20% | [5] 15.1% | [6] 18.2%

O=CC(O)C(O)C(O)C(O)CN(CCCl)CCCl (centres undefined)
inactive: [1] -15.8% | [2] -10.6% | [3] 0.65% | [4] -0.55% | [5] -8.9% | [6] -69%

BrCCN(CCBr)c1ccccc1
inactive: [1] 4.75% | [2] -6.5% | [3] 6.3% | [4] 11% | [5] -2.85% | [6] 18.1%

COc1cc(CN(CCBr)CCBr)cc(OC)c1OC
inactive: [1] -13.2% | [2] -2.65% | [3] -7.55% | [4] -31.9% | [5] 19.5% | [6] -4.35%

O=c1[nH]c2ccccc2n1C1CCN(Cc2ccccc2)CC1
inactive: [1] -7.3% | [2] -30.2% | [3] 0.75% | [4] 14.7% | [5] -4.35% | [6] -1.1%

CCCCCCCCC(=O)OCC(COP(=O)(Oc1ccccc1)N(CCCl)CCCl)OC(=O)CCCCCCCC (centres undefined)
inactive: [1] 4.75% | [2] -0.45% | [3] -18.6% | [4] -4.25% | [5] -4.05% | [6] 13.3%

Fc1cccc(CBr)c1
inactive: [1] -1.05% | [2] -9.8% | [3] -6.55% | [4] 14.5% | [5] 8.8% | [6] 3.3%

CCOC(=O)N1CCC(=O)CC1
inactive: [1] 2.1% | [2] -9.25% | [3] 8.95% | [4] 4.45% | [5] 7.8% | [6] 17.4%

O=C1CCN(CCc2ccccc2)CC1
inactive: [1] -1.2% | [2] -32.6% | [3] 0.7% | [4] 14.5% | [5] 3.9% | [6] 15.3%

Nc1cc([As](Cl)Cl)ccc1O
inactive: [1] 42.8% | [2] 16.4% | [3] 3.8% | [4] -86.5% | [5] 37.2% | [6] 41.3%

Cc1ccc(NC2(C(N)=O)CCNCC2)cc1
inactive: [1] 15% | [2] -43.2% | [3] 1.55% | [4] 9.35% | [5] -3.25% | [6] -1.4%

O=P(Cl)(Cl)CCCl
inactive: [1] -2.3% | [2] -16.8% | [3] -1.45% | [4] -6.5% | [5] -9.3% | [6] -0.2%

Cc1cccc(NC2(C#N)CCN(Cc3ccccc3)CC2)c1
inactive: [1] 18.7% | [2] -32.9% | [3] 11.8% | [4] 43.5% | [5] 3% | [6] 7.1%

Cn1c(S(C)=O)cnc1COC(=O)N(CCCl)CCCl (centres undefined)
inactive: [1] -6.7% | [2] -27.4% | [3] -36.8% | [4] -10.8% | [5] 11.1% | [6] -16.2%

CCCCN(CCCl)CCCC
inactive: [1] 27% | [2] 27.8% | [3] 39.8% | [4] 3.15% | [5] 40.8% | [6] 35%

COC(=O)c1ccc(C)c(N(CCCl)CCCl)c1
inactive: [1] -27.1% | [2] -1.1% | [3] 9.05% | [4] 17.2% | [5] 2.45% | [6] -42.4%

ClCCN(CCCl)c1ccc(Cl)cc1
inactive: [1] 2.6% | [2] -12.4% | [3] -0.15% | [4] 2.2% | [5] 5.25% | [6] 10.8%

COc1cc(CN(CCBr)CCBr)cc(OC)c1
inactive: [1] -6.4% | [2] -7.25% | [3] -14.7% | [4] -33.7% | [5] -4.25% | [6] -15.1%

COc1cccc(CN(CCCl)CCCl)c1OC
inactive: [1] -4.35% | [2] -3.45% | [3] -0.75% | [4] 22.6% | [5] -0.15% | [6] -2.7%

O=C(O)CN(CCCl)CCCl
inactive: [1] 1.65% | [2] 7.3% | [3] -5.55% | [4] -22.4% | [5] 2.65% | [6] 6.65%
